Test results as given in US20150306241A1, “COPOLYMERS FOR THE DELIVERY OF DRUGS INTO CELLS” (published 2015).

Tested on: A549 cells
Experiment: TATp competition study
Conditions: free TATp 0.35, 3.5 or 35 μM, 2 h, dose-dependent
Experimental: FIG. 24 illustrates TATp competition studies. A549 cells were seeded in 24-well plates at 1.6×10^5 cells/well in 300 μL/well of complete growth media. After 24 h, the free TATp (0.35, 3.5 or 35 μM) was added into the cell media. Then, 10 μL of the rhodamine-PE-labeled MMP2-sensitive nanopreparation (1 mg/mL) was immediately added and incubated for 2 h. The cells were collected and analyzed by FACS.
A549 cells were seeded in 24-well plates at 1.6×10^5 cells/well in 300 μL/well of complete growth media. After 24 h, the free TATp (0.35, 3.5 or 35 μM) was added into the cell media. Then, 10 μL of the rhodamine-PE-labeled MMP2-sensitive nanopreparation (1 mg/mL) was immediately added and incubated for 2 h. The media was removed and the cells were washed with serum-free media three times. Cells were then analyzed by FACS.

“Cys-Tyr-Gly-Arg-Lys-Lys-Arg-Arg-Gln-Arg-Arg-Arg” was tested, and the “effect on cellular uptake of rhodamine-PE-labeled nanopreparations” value was “decreased the TATp-mediated cellular uptake”.

Some compounds may have been tested in ways that are not shown here.
